## scFv variants of Ab-14 (light chain) against a SARS-CoV-2 spike peptide

The target is the same throughout: PDVDLGDISGINAS, from the HR2 region of SARS-CoV-2 spike.

Parent: Ab-14, a human scFv built as VH, three GGGGS repeats, VL. Only the CDRs of the light chain vary.
VH: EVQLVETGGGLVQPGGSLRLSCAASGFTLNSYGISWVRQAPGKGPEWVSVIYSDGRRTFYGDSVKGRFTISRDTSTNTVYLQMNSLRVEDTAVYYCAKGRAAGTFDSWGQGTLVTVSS
VL: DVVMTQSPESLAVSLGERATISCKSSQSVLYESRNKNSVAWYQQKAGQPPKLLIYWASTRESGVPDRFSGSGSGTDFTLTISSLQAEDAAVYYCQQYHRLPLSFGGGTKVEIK

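Phage display of a naive human antibody library on the peptide gave the parent. The variants were designed computationally from a first round of random CDR variants and then made and measured. Group labels follow the data file (Ctrl: baseline library sampled from a position-specific scoring matrix, with some repeated check sequences; Rand: our label for a block that the file lists under HC and that is probably the random mutants of the ten best first-round binders; En: ensemble of fine-tuned language models; GP: Gaussian process model; HC: hill climbing; Gen: genetic algorithm; Gibbs: Gibbs sampling; a sequence that several methods proposed may carry one label only). The assay is AlphaSeq: two haploid yeast populations carry antibody and antigen on their surface. The frequency of each diploid, read from paired DNA barcodes, reflects how well the two displayed proteins bind. Read counts were normalised to the haploid input and turned into Kd by a linear fit to BCL2-family pairs of known affinity, for each replicate. Mating was done six times.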

Variants are written as CDR1, CDR2 and CDR3 of the light chain (limits as in the source). Parent: KSSQSVLYESRNKNSVA, WASTRES, QQYHRLPLS. Values are apparent Kd, the geometric mean of the replicates that gave a signal; lower means stronger binding. "not detected" marks a missing value. The strain was present, yet no cells mated with the target were sequenced in any replicate, which points to weak or no binding. Order: sorted from the lowest average up, undetected variants last. In the paper, a design with two or fewer of six values counts as a poor binder.

| CDR-L1 | CDR-L2 | CDR-L3 | group | Kd (apparent) | seen in | signal with controls |
|---|---|---|---|---|---|---|
| KLPQSVLYESRNKNSVA | EASTRLS | QQYHRLPLS | GP_Gen | 480 pM | 6/6 | 2/18 |
| LVDQSQLYENRMKNSVA | DASLRES | QQYHRLPLS | GP_Gibbs | 590 pM | 6/6 | 1/18 |
| KLSQSWLYESRNKNSVA | NASTRED | QDYHRLPLS | GP_Gen | 620 pM | 6/6 | 0/18 |
| KMQGSVMMLSRNDNSVA | DASTRES | QQYHRLPLS | GP_Gibbs | 740 pM | 6/6 | 1/18 |
| KMQASNGYESRNKNSVA | QASTRES | QQYHRLPLS | GP_Gibbs | 740 pM | 6/6 | 0/18 |
| MISDLTMEGSRNKNSVA | DLSTRGH | QQYHRLPLS | En_HC | 750 pM | 6/6 | 1/18 |
| KFSQSVLYESTTHNSVA | NASTRES | QQYHRLPLS | GP_HC | 770 pM | 6/6 | 0/18 |
| KQSDSVLLESRNKNSVA | DASTRES | QQYHRLPLS | GP_HC | 790 pM | 6/6 | 2/18 |
| KLSQSVLYESRNKWSVA | NASTREQ | QQYHRLPLS | GP_Gen | 840 pM | 6/6 | 0/18 |
| KLSATYRYESMNKNSIA | EMTTRES | QCYHRLPLS | En_HC | 960 pM | 6/6 | 1/18 |
| KCMQSSLYESRNKNSVA | NASTREV | QQYHRLPLS | GP_Gibbs | 980 pM | 6/6 | 2/18 |
| KASQSVLYSSVNKNSVA | DASTRES | QQYHRLPLS | GP_HC | 1.1 nM | 6/6 | 0/18 |
| AIEEDNAGEQKNSSNIA | SVDQRED | QQYQRLPLM | En_Gibbs | 1.1 nM | 6/6 | 3/18 |
| KLFQSELYESRQANNVA | NASQRES | QQYHRLPLS | GP_Gibbs | 1.1 nM | 6/6 | 0/18 |
| KYTQSVLYESNNKNSVA | HASTRES | QQYHRLPLS | Ctrl | 1.3 nM | 6/6 | 0/18 |
| KVSPSMLGEQRNKNSVA | SASTREN | QQYHRLPLS | GP_Gibbs | 1.4 nM | 6/6 | 0/18 |
| KLQQSMGYESRNKNSVA | NASTRES | QQYHRLPLS | GP_Gen | 1.5 nM | 6/6 | 1/18 |
| ILSYSELYEDRMKNSVA | NASTREQ | QQYHRLPLS | GP_Gibbs | 1.5 nM | 6/6 | 2/18 |
| KIGMTLNQMVEKKNNVA | DLVEREN | QQYHRLPLS | En_Gen | 1.5 nM | 6/6 | 0/18 |
| KLSISYLYESRNKNSVA | EASTRES | QQYHRMPLS | GP_HC | 1.5 nM | 6/6 | 0/18 |
| KLSQSVLYESTNSNSVA | DASTRYS | QQYHRLPLS | GP_Gibbs | 1.6 nM | 6/6 | 1/18 |
| KSMQGVLYESRNKNHVA | GASTRES | QQYHRLPLS | GP_HC | 1.6 nM | 6/6 | 1/18 |
| KWQQSSDYESRNFNSVA | NASTRCT | QQYHRLPLS | GP_Gibbs | 1.6 nM | 6/6 | 1/18 |
| KIPQSMLGEWRNFNSVA | NASQRES | QQYHRLPLS | GP_Gibbs | 1.8 nM | 6/6 | 1/18 |
| KLSQSWLYESRNKNSVA | NASTRES | QAYHRLPLS | GP_Gen | 1.8 nM | 6/6 | 2/18 |
| KLFQSYEYESRNKNSVA | NASQREW | QQYHRLPLS | GP_Gibbs | 1.9 nM | 6/6 | 0/18 |
| KLSQSDGGLQRNKNSVA | EASTREM | QQYHRLPLS | GP_Gibbs | 2.0 nM | 6/6 | 0/18 |
| MVYQAAMMGMSTRNSIA | NAQMRPD | QQYHRLPLM | En_Gen | 2.0 nM | 6/6 | 1/18 |
| TISQMTSLFSQNINNVA | EVSTREN | QQYDRLPLA | En_Gen | 2.2 nM | 6/6 | 1/18 |
| KSSQSRLYESRNKNSVA | EASVRES | QQYHRLPLS | Ctrl | 2.6 nM | 6/6 | 0/18 |
| MFSQSVMYGSFMRNSVA | QTSTREE | QQYDRLPLS | En_HC | 2.6 nM | 6/6 | 1/18 |

The remaining entries, values ahead:

| Kd (apparent) | seen in | signal with controls | CDR-L1 | CDR-L2 | CDR-L3 | group |
|---|---|---|---|---|---|---|
| 2.6 nM | 6/6 | 2/18 | KLYSVTGTEKVNGNNVA | EMETREK | QQYNRLPLS | En_Gen |
| 2.8 nM | 6/6 | 3/18 | KLGNQEQMNGMANQNVA | AMNTVVD | QEYHRLPLI | En_Gibbs |
| 3.5 nM | 6/6 | 0/18 | KLSQSNLYESRNKNSVA | NASQRCS | QQYHRLPLS | GP_Gen |
| 3.9 nM | 6/6 | 0/18 | SLFESEREELSVEQNIA | DGTEHMD | QQYFRLPLL | En_Gibbs |
| 4.0 nM | 6/6 | 0/18 | HITYGMNVAGRHSSSIA | QAETREK | QQYDRLPLI | En_Gen |
| 4.4 nM | 6/6 | 2/18 | NISESMYFQSRNNNNIA | EMSTRER | QHYHRLPLS | En_HC |
| 4.7 nM | 6/6 | 1/18 | NLSWKSLGFENEWMAIA | NTSERNA | QQYARLPLS | En_Gibbs |
| 6.5 nM | 6/6 | 0/18 | KISQSVLYESRNVNSVA | WASTRES | QQYHTLPLS | Ctrl |
| 7.4 nM | 6/6 | 1/18 | MIAAGLRGVGRNKNSVA | NAQTREE | QHYHRLPLS | En_HC |
| 8.5 nM | 6/6 | 2/18 | NLKEMEGDNQTKHGNIA | SVDQTMT | QQYFRLPLA | En_Gibbs |
| 9.7 nM | 6/6 | 0/18 | KVQYSMDYESRNKNSVA | EASDRES | QDYHRLPLS | GP_Gibbs |
| 10 nM | 1/6 | 1/18 | KSSQSVVYESRNKMSVA | WASTRES | QQYHRLPLS | Ctrl |
| 12 nM | 6/6 | 0/18 | QIYQAMHTLMQQKNNVA | DVTNRTK | QQYNRLPLS | En_Gen |
| 14 nM | 6/6 | 3/18 | NMRGVEGEIAQHGYSVA | GVDLRAA | QQYARLPLH | En_Gibbs |
| 14 nM | 6/6 | 0/18 | HITYGMMVAGRHSKSIA | QAEERAK | QQYDRLPLI | En_Gen |
| 14 nM | 6/6 | 2/18 | SISGFMKSLAAHYNSVA | DMTNRED | QQYDRLPLS | En_Gen |
| 16 nM | 6/6 | 2/18 | MMSQVTGLGQRHRNNVA | QTETREP | QQYDRLPLI | En_Gen |
| 18 nM | 6/6 | 0/18 | IVSQLMLWGMHARNSIA | EAVTRLN | QQYDRLPLF | En_Gen |
| 24 nM | 6/6 | 0/18 | KSSQSVLGESRNKNSVA | WGSTRES | QQYHRLPLS | Ctrl |
| 41 nM | 6/6 | 2/18 | MISQLYNMGTFAINSVA | QASLRNV | QQYDRLPLA | En_Gen |
| 69 nM | 6/6 | 0/18 | KMSQSVLMESRNKNSVA | EASLRES | QQYHRLPLS | GP_HC |
| 71 nM | 1/6 | 0/18 | MISQLYNFGTFAINSVA | QAETRCN | QQYDRLPLE | En_Gen |
| 110 nM | 6/6 | 1/18 | KLTKYQYNWTSHYQAVA | ESNMRAT | QSYYRLPFS | En_Gibbs |
| 110 nM | 4/6 | 0/18 | KSYQSVLYESRNKNSIA | GASTRES | QQYHRFPLS | Ctrl |
| 130 nM | 6/6 | 0/18 | KSDQSVLYESRNKNSVA | WASTRVN | QQYHRLPLS | Ctrl |
| 220 nM | 5/6 | 1/18 | SLADSVHMESRNKNSVA | DNSTRES | QHYHRLPLS | En_HC |
| 460 nM | 2/6 | 2/18 | KSSQSVLKENRNKNSVA | WASTRVS | QQYHRLPFS | Ctrl |
| 500 nM | 5/6 | 1/18 | KSSQSVLYESRNNNSVA | WASTRES | CQYHGLPLS | Ctrl |
| 920 nM | 1/6 | 0/18 | MISNEQDYGYSATNSVA | DVTEKLN | QQYKRLPLT | En_Gibbs |
| not detected | 0/6 | 0/18 | KSGEGVLYESRNKNSVA | GASTEES | QQYHRLPLS | Rand |
| not detected | 0/6 | 0/18 | IVSQLMMWGMVAKNSIA | EAVTRLN | QQYDRLPLF | En_Gen |
| not detected | 0/6 | 0/18 | KSSQSVLYESRPKNSVA | WASTRES | QQYHRLPLS | Ctrl |

Excerpt, the first 11 entries:

| CDR-L1 | CDR-L2 | CDR-L3 | group | Kd (apparent) | seen in | signal with controls |
|---|---|---|---|---|---|---|
| KLPQSVLYESRNKNSVA | EASTRLS | QQYHRLPLS | GP_Gen | 480 pM | 6/6 | 2/18 |
| LVDQSQLYENRMKNSVA | DASLRES | QQYHRLPLS | GP_Gibbs | 590 pM | 6/6 | 1/18 |
| KLSQSWLYESRNKNSVA | NASTRED | QDYHRLPLS | GP_Gen | 620 pM | 6/6 | 0/18 |
| KMQGSVMMLSRNDNSVA | DASTRES | QQYHRLPLS | GP_Gibbs | 740 pM | 6/6 | 1/18 |
| KMQASNGYESRNKNSVA | QASTRES | QQYHRLPLS | GP_Gibbs | 740 pM | 6/6 | 0/18 |
| MISDLTMEGSRNKNSVA | DLSTRGH | QQYHRLPLS | En_HC | 750 pM | 6/6 | 1/18 |
| KFSQSVLYESTTHNSVA | NASTRES | QQYHRLPLS | GP_HC | 770 pM | 6/6 | 0/18 |
| KQSDSVLLESRNKNSVA | DASTRES | QQYHRLPLS | GP_HC | 790 pM | 6/6 | 2/18 |
| KLSQSVLYESRNKWSVA | NASTREQ | QQYHRLPLS | GP_Gen | 840 pM | 6/6 | 0/18 |
| KLSATYRYESMNKNSIA | EMTTRES | QCYHRLPLS | En_HC | 960 pM | 6/6 | 1/18 |
| KCMQSSLYESRNKNSVA | NASTREV | QQYHRLPLS | GP_Gibbs | 980 pM | 6/6 | 2/18 |

A sequence measured in both rounds can read differently, since the two assays cover different ranges. Background: pairings of all light chain designs with three empty control strains gave a value in 4% of cases (median 430 nM, 5th percentile 38 nM). Values in that range, when seen in few replicates, are hard to tell from nonspecific mating. Also given: how often the same scFv was detected with the empty control strains. The parent sequence was in this pool as ten entries: three were never detected, three once, and four in most replicates, with averages from 2.2 nM to 240 nM.

Reference: Li et al. 2023, doi:10.1038/s41467-023-39022-2. File: FLAb, binding data.